Test: In vivo release behavior of human growth hormone from the polymer hydrogel
Settings: SD rat, solution containing human growth hormone only injected
Experimental: The anionic human growth hormone and the cationic protamine sulfate were mixed in various ratios (protamine:human growth hormone=1:1 or 3:1) to prepare complexes. The phosphazene-based polymers of Examples 7 and 8 each were dissolved in phosphate buffered saline (pH 7.4) to make a solution with the concentration of 10 wt %, to which was added the above prepared complex. For the in vivo release test, 200 μg/kg of hydrogel containing human growth hormone in the concentration of 1.1 mg/kg was injected to test animal rats (OrientalBio, SD rat, male of 4-week old). At the predetermined time, 0.3 nm of blood was taken from the tail of rat and centrifuged. The amount of human growth hormone contained in the supernatant was measured by using an ELISA kit (BioCheck, Inc., USA).
The ratio of protamine sulfate and human growth hormone in the formation of the complex was fixed to protamine:human growth hormone=1:1 or 3:1, and was represented in the format such as Example-1 (1:1) or Example-2 (3:1). The release behavior of human growth hormone in the phosphazene-based polymer hydrogel to which protamine was combined in various ratios was measured as above and is represented in FIG. 6. […] On the contrary, when the hormone was combined with the phosphazene-based polymer hydrogel, sustained release as shown in the figure could be observed. […]

human growth hormone
time within which sharp decrease of blood concentration was observed: ≤ 24 h

Source: patent publication US20140031289A1 (Korea Institute of Science and Technology, priority 2012, published 2014)
